Data: article PMC7878667, “The Kinase Specificity of Protein Kinase Inhibitor Peptide” (Frontiers in Pharmacology, 2021)

Biological target: protein kinase A (PKA) (human) (UniProt P17612)

IC50 of inhibition of PKA kinase activity, dose-response curve (cell-free Z′-LYTE Peptide Kinase Assay, purified kinase): 110 pM
Substance: full length mouse PKIα (from UniProt P63248 1-76) (natural protein)
